Key:
ALDH1A3 = ALDH1A3 (UniProt P47895); experiment: IC50 of competition for binding to PARP-centric bead matrix; settings: affinity matrix: PARP family-centric bead mix; lysate: MDA-MB-231
CDK8 = CDK8 (UniProt P49336); experiment: as above; settings: affinity matrix: PARP family-centric bead mix; lysate: MDA-MB-231
UniProt Q8TF76 = experiment: as above; settings: affinity matrix: PARP family-centric bead mix; lysate: MDA-MB-231
UniProt Q9H2K2 = experiment: as above; settings: affinity matrix: PARP family-centric bead mix; lysate: MDA-MB-231
ALDH1A1 = ALDH1A1 (UniProt P00352); experiment: IC50 of competition for binding to immobilized-niraparib matrix; settings: affinity matrix: immobilized niraparib (NHS-Sepharose); lysate: 1:1:1:1 mix of HEK293, K-562, placenta, HepG2 Princen
ECH1 = ECH1 (UniProt Q13011); experiment: as above; settings: affinity matrix: immobilized niraparib (NHS-Sepharose); lysate: 1:1:1:1 mix of HEK293, K-562, placenta, HepG2 Princen
PARP14 = PARP14 (UniProt Q460N5); experiment: as above; settings: affinity matrix: immobilized niraparib (NHS-Sepharose); lysate: 1:1:1:1 mix of HEK293, K-562, placenta, HepG2 Princen
UniProt P19784 = experiment: as above; settings: affinity matrix: immobilized niraparib (NHS-Sepharose); lysate: 1:1:1:1 mix of HEK293, K-562, placenta, HepG2 Princen
UniProt Q9Y233 = experiment: as above; settings: affinity matrix: immobilized niraparib (NHS-Sepharose); lysate: 1:1:1:1 mix of HEK293, K-562, placenta, HepG2 Princen
BMPR2 = BMPR2 (UniProt Q13873); experiment: apparent dissociation constant pKd app (kinobead competition) (-log10(M)); higher = stronger binding
CDC42BPG = CDC42BPG (UniProt Q6DT37); experiment: as above
CDK6 = CDK6 (UniProt Q00534); experiment: as above
CLK2 = CLK2 (UniProt P49760); experiment: as above
FGFR3 = FGFR3 (UniProt P22607); experiment: as above
MAP3K6 = MAP3K6 (UniProt O95382); experiment: as above
MAPK11 = MAPK11 (UniProt Q15759); experiment: as above
NEK1 = NEK1 (UniProt Q96PY6); experiment: as above
NUAK1 = NUAK1 (UniProt O60285); experiment: as above
PCTK3 = PCTK3 (UniProt Q07002); experiment: as above
PDIK1L = PDIK1L (UniProt Q8N165); experiment: as above
RPS6KB1 = RPS6KB1 (UniProt P23443); experiment: as above
TAOK2 = TAOK2 (UniProt Q9UL54); experiment: as above
TESK1 = TESK1 (UniProt Q15569); experiment: as above
BICRA = BICRA (UniProt Q9NZM4); experiment: IC50 of competition for binding to PARP-centric bead matrix; settings: affinity matrix: PARP family-centric bead mix; lysate: MDA-MB-231
TEX264 = TEX264 (UniProt Q9Y6I9); experiment: as above; settings: affinity matrix: PARP family-centric bead mix; lysate: MDA-MB-231
UniProt Q8WWA0 = experiment: IC50 of competition for binding to immobilized-niraparib matrix; settings: affinity matrix: immobilized niraparib (NHS-Sepharose); lysate: 1:1:1:1 mix of HEK293, K-562, placenta, HepG2 Princen
BRSK1 = BRSK1 (UniProt Q8TDC3); experiment: apparent dissociation constant pKd app (kinobead competition) (-log10(M)); higher = stronger binding
CHUK = CHUK (UniProt O15111); experiment: as above
CSNK1A1 = CSNK1A1 (UniProt P48729); experiment: as above
CSNK2A1 = CSNK2A1 (UniProt P68400); experiment: as above
CSNK2A2 = CSNK2A2 (UniProt P19784); experiment: as above
DYRK1A = DYRK1A (UniProt Q13627); experiment: as above
DYRK2 = DYRK2 (UniProt Q92630); experiment: as above
EPHB6 = EPHB6 (UniProt O15197); experiment: as above
HIPK2 = HIPK2 (UniProt Q9H2X6); experiment: as above
HIPK3 = HIPK3 (UniProt Q9H422); experiment: as above
PCTK1 = PCTK1 (UniProt Q00536); experiment: as above
PDGFRB = PDGFRB (UniProt P09619); experiment: as above

## NC(=O)c1cccc2cn(-c3ccc([C@@H]4CCCNC4)cc3)nc12 [Niraparib]
ALDH1A3
  IC50: 1.9 µM
CDK8
  IC50: > 30 µM
UniProt Q8TF76
  IC50: 1.5 µM
UniProt Q9H2K2
  IC50: > 30 µM
ALDH1A1
  IC50: 1.5 µM
ECH1
  IC50: 4.81 µM
PARP14
  IC50: > 30 µM
UniProt P19784
  IC50: 4.8 µM
UniProt Q9Y233
  IC50: 13 µM
BMPR2
  apparent dissociation constant pKd app (-log10): < 4.5
CDC42BPG
  apparent dissociation constant pKd app (-log10): < 4.5
CDK6
  apparent dissociation constant pKd app (-log10): < 4.5
CLK2
  apparent dissociation constant pKd app (-log10): < 4.7
FGFR3
  apparent dissociation constant pKd app (-log10): < 4.6
MAP3K6
  apparent dissociation constant pKd app (-log10): < 4.5
MAPK11
  apparent dissociation constant pKd app (-log10): < 4.7
NEK1
  apparent dissociation constant pKd app (-log10): < 4.5
NUAK1
  apparent dissociation constant pKd app (-log10): < 4.7
PCTK3
  apparent dissociation constant pKd app (-log10): < 4.6
PDIK1L
  apparent dissociation constant pKd app (-log10): < 4.6
RPS6KB1
  apparent dissociation constant pKd app (-log10): < 4.5
TAOK2
  apparent dissociation constant pKd app (-log10): < 4.5
TESK1
  apparent dissociation constant pKd app (-log10): < 4.7

## Cn1ncnc1[C@H]1c2n[nH]c(=O)c3cc(F)cc(c23)N[C@@H]1c1ccc(F)cc1 [Talazoparib]
BICRA
  IC50: > 30 µM
CDK8
  IC50: > 30 µM
TEX264
  IC50: > 30 µM
UniProt Q9H2K2
  IC50: 0.0155 µM
ALDH1A1
  IC50: > 30 µM
ECH1
  IC50: > 30 µM
PARP14
  IC50: > 30 µM
UniProt P19784
  IC50: > 30 µM
UniProt Q8WWA0
  IC50: > 30 µM
UniProt Q9Y233
  IC50: > 30 µM
BRSK1
  apparent dissociation constant pKd app (-log10): < 4.7
CDK6
  apparent dissociation constant pKd app (-log10): < 4.5
CHUK
  apparent dissociation constant pKd app (-log10): < 4.5
CSNK1A1
  apparent dissociation constant pKd app (-log10): < 4.5
CSNK2A1
  apparent dissociation constant pKd app (-log10): < 4.5
CSNK2A2
  apparent dissociation constant pKd app (-log10): < 4.6
DYRK1A
  apparent dissociation constant pKd app (-log10): < 4.6
DYRK2
  apparent dissociation constant pKd app (-log10): < 4.6
EPHB6
  apparent dissociation constant pKd app (-log10): < 4.6
HIPK2
  apparent dissociation constant pKd app (-log10): < 4.7
HIPK3
  apparent dissociation constant pKd app (-log10): < 4.7
PCTK1
  apparent dissociation constant pKd app (-log10): < 4.5
PCTK3
  apparent dissociation constant pKd app (-log10): < 4.6
PDGFRB
  apparent dissociation constant pKd app (-log10): < 4.5
TAOK2
  apparent dissociation constant pKd app (-log10): < 4.5
TESK1
  apparent dissociation constant pKd app (-log10): < 4.7

## O=C(c1cc(Cc2n[nH]c(=O)c3ccccc23)ccc1F)N1CCN(C(=O)C2CC2)CC1 [Olaparib]
ALDH1A3
  IC50: > 30 µM
BICRA
  IC50: > 30 µM
TEX264
  IC50: > 30 µM
UniProt Q8TF76
  IC50: > 30 µM
UniProt Q8WWA0
  IC50: > 30 µM
BMPR2
  apparent dissociation constant pKd app (-log10): < 4.5
BRSK1
  apparent dissociation constant pKd app (-log10): < 4.7
CDC42BPG
  apparent dissociation constant pKd app (-log10): < 4.5
CHUK
  apparent dissociation constant pKd app (-log10): < 4.5
CLK2
  apparent dissociation constant pKd app (-log10): < 4.7
CSNK1A1
  apparent dissociation constant pKd app (-log10): < 4.5
CSNK2A1
  apparent dissociation constant pKd app (-log10): < 4.5
CSNK2A2
  apparent dissociation constant pKd app (-log10): < 4.6
DYRK1A
  apparent dissociation constant pKd app (-log10): < 4.6
DYRK2
  apparent dissociation constant pKd app (-log10): < 4.6
EPHB6
  apparent dissociation constant pKd app (-log10): < 4.6
FGFR3
  apparent dissociation constant pKd app (-log10): < 4.6
HIPK2
  apparent dissociation constant pKd app (-log10): < 4.7
HIPK3
  apparent dissociation constant pKd app (-log10): < 4.7
MAP3K6
  apparent dissociation constant pKd app (-log10): < 4.5
MAPK11
  apparent dissociation constant pKd app (-log10): < 4.7
NEK1
  apparent dissociation constant pKd app (-log10): < 4.5
NUAK1
  apparent dissociation constant pKd app (-log10): < 4.7
PCTK1
  apparent dissociation constant pKd app (-log10): < 4.5
PDGFRB
  apparent dissociation constant pKd app (-log10): < 4.5
PDIK1L
  apparent dissociation constant pKd app (-log10): < 4.6
RPS6KB1
  apparent dissociation constant pKd app (-log10): < 4.5

From the supplement of paper PMC11403291
